# Assay: Tolerability (body weight) in the B16.F10 murine melanoma model
# Conditions: 15 mg/kg IV, three injections over 2 weeks (twice per week); listed as CDP-Gly-DTX nanoparticle formulation
substance,measurement,value
CDP-2′-glycine-docetaxel [CDP-Gly-DTX formulation],Maximum body weight loss (%),did not cause any significant body weight loss
